The list shows a part of the results, in another mix than the full data. Activity calls are given as the source filed them. No stated cut-off is given here; in the data, active means enhancement above about 30%; inactive means the rest.
target: Thyrotropin-releasing hormone receptor (Homo sapiens) (UniProt P34981); assay: qHTS for Small Molecule Agonists and Allosteric Enhancers of Human TRH Receptor: Primary Screen for Enhancers; details: TRHR cells, fluo-8 calcium fluorescence, EC20 TRH enhancement; at 2 µM; stronger effect = higher value; further: 0% is about no effect
Text: NIH Chemical Genomics Center [NCGC] NIH Molecular Libraries Probe Centers Network [MLPCN] MLPCN Grant: MH089816-01 Assay Submitter (PI): Marvin Gershengorn This project aims to identify small drug-like molecules that activate (agonists) the thyrotropin releasing hormone (TRH) receptor (TRHR) or enhance its TRH-stimulated activity (allosteric enhancers). TRHR, a drug-accessible cell surface receptor expressed in specific brain regions, and its ligand TRH have been implicated in several central nervous system disorders, including depression and anxiety. Small molecule TRHR agonists or allosteric enhancers that are metabolically stable and able to cross the blood-brain barrier might serve as probes to elucidate the roles of brain TRH receptors in animal models, and might be valuable as lead compounds for the development of drugs to treat patients with central nervous system disorders. Upon TRHR-Gq activation in TRHR cells, intracellular calcium is released from stores in the endoplasmic reticulum. […] This primary screen measures compound-induced enhancement of an EC20 stimulation of the receptor by its native ligand.
For the HTS assay freshly prepared cells are plated at a density of 2000/well in 3 ul of complete DMEM medium containing 10% serum in 1536-well plates and cultured over night at 37 C in a humidified incubator with 5% CO2. The next day, 2 ul of a no wash calcium dye (ABD Bioquest) was added to the cells and plates were incubated at room temperature for 1 hour. For the assay, assay plates were loaded into the FDSS kinetic plate reader. A 10 cycle (1 second/cycle) baseline measurement is taken and then the FDSS online 1536 pintool delivers 23 nl of compound library (as well as TRH controls) to the plate. The plate is measured for kinetically at 1 cycle/sec for 180 seconds and is considered to be the agonist portion of the assay (eg, compounds which activate a positive calcium response during this portion are flagged as potential agonists). Following the 180 second read, 1 ul of either an EC20 (positive modulation assay) is delivered by an onboard pipette head. Measurements are taken kinetically for an additional 180 seconds. TRHR FDSS Screening Protocol 1. Reagent, 3 uL 2000 cells/well 1536 TC treated Black plate in media containing 10% FCS 2. Time, 18 hours, 33.5C 5% CO2 (cells grown at 37C) 3. Reagent, 2 uL ABD fluo-8 Ca dye 4. Time, 30 min-1.5hrs hours, Room temp (6 plates/batch) 5. Detector, EX 480/EM 530C, FDSS 10 cycles baseline (1sec/cycle) 6. Compound, 23 nL of stock solution from library 7. Detector, EX 480/EM 530C, FDSS 230 cycles (1sec/cycle) Agonist mode 8. Compound, 1 ul EC20 of TRH made up in HEPES HBSS, 10 nM final 9. Detector, EX 480/EM 530C, FDSS 100 cycles (1sec/cycle) Potentiator mode

Protein sequences, listed by entry. Tags and fused reporters are not part of them. Lines headed by an entry give the natural chain unless they say otherwise; changes in a name come on top.
UniProt P34981: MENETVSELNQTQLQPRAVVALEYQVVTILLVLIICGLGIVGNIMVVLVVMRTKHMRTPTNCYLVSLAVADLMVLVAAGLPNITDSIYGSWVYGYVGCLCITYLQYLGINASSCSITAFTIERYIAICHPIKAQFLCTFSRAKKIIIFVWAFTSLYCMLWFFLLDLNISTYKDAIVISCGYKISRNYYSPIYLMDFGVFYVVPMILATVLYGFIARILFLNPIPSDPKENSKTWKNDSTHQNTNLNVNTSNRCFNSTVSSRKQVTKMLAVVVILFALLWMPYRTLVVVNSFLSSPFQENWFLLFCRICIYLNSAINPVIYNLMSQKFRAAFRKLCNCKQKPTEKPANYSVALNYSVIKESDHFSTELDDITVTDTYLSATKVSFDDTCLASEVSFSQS

Row | SMILES | enhancement
1 | O=P1(Nc2ncccn2)COc2ccccc2OC1 | inactive: 7.97%
2 | NS(=O)(=O)c1cccc(NC(=O)COC(=O)C(O)(c2ccccc2)c2ccccc2)c1 | inactive: 6.6%
3 | O=P1(Nc2ccc(Br)cn2)COc2ccccc2OC1 | inactive: -9.38%
4 | O=[As](O)(c1cccs1)c1cccs1 | inactive: 5.68%
5 | Cc1ccc(OCC(=O)OC2CN3CCC2CC3)cc1 (stereo unspecified) | inactive: 2.34%
6 | Nc1cccc([As](=O)(O)c2ccccc2)c1 | inactive: 0.766%
7 | Cc1ccc(C(=O)OC2CN3CCC2CC3)cc1 (stereo unspecified) | inactive: -4.75%
8 | CC1CCC(C(C)C)C(OP(=O)(Nc2ccccn2)c2ccccc2)C1 (stereo unspecified) | inactive: -7.27%
9 | Cc1nn(-c2ccccc2)c2c1P(=O)(N1CCOCC1)N(C)C(c1ccccc1)=N2 (stereo unspecified) | inactive: 2.12%
10 | O=C(/C=C/c1ccccc1)OC1CN2CCC1CC2 (stereo unspecified) | inactive: -12.5%
11 | CN(C)C1(CNC(=O)c2ccc(S(C)(=O)=O)cc2)CCCCC1 | inactive: -1.98%
12 | COc1ccccc1CNC(=O)COC(=O)C(O)(c1ccccc1)c1ccccc1 | inactive: 6.29%
13 | O=[As](O)(c1ccccc1Br)c1ccccc1Br | inactive: 12.5%
14 | CN(C(=O)Cc1ccc(Cl)c(Cl)c1)[C@@H]1CCCC[C@H]1N1CCCC1 | inactive: -5.05%
15 | CC(C)/C=N\N=C(\N)N[N+](=O)[O-] | inactive: -0.408%
16 | CCOP(=O)(Nc1ccc(C)cn1)OCC | inactive: -1.19%
17 | CCOP(=O)(NC(=NC(C)c1ccccc1)NC(C)c1ccccc1)OCC (stereo unspecified) | inactive: -0.335%
18 | CCC1=CC2Cc3nc4ccc(Cl)cc4c(N)c3C(C1)C2 (stereo unspecified) | inactive: 0.573%
19 | O=P1(Nc2ccccn2)COc2ccccc2OC1 | inactive: 4.77%
20 | CC(C)(C)C(=O)NC(Sc1ncccn1)C(Cl)(Cl)Cl (stereo unspecified) | inactive: -2.31%
21 | Clc1n[nH]nc1-c1nn[nH][15n]1 | inactive: -4.87%
22 | CCCOP(=S)(Nc1nc(N)cc(=O)[nH]1)OCCC | inactive: -12.2%
23 | Nc1cccc2c([As](=O)(O)O)cccc12 | inactive: 18.1%
24 | Cc1ccc(NCCc2c([N+](=O)[O-])cc([N+](=O)[O-])cc2[N+](=O)[O-])cc1 | inactive: -5.5%
25 | CCOP(=O)(Nc1cccc2ccccc12)OCC | inactive: 0.692%
26 | COc1cc(C2NCCC3(OCCO3)C2(C)C)cc(OC)c1OC (stereo unspecified) | inactive: -1.22%

Row | SMILES | enhancement
27 | CS(=O)(=O)c1ccc(Cl)c(NC(=O)COC(=O)C(O)(c2ccccc2)c2ccccc2)c1 | inactive: -7.79%
28 | COc1cc(C(=O)NCC2(N3CCOCC3)CCCCC2)cc(Cl)c1OC(C)C | inactive: -3.55%
29 | O=[As](O)(O)c1cccnc1 | inactive: 0.54%
30 | O=C(OC1CN2CCC1CC2)c1ccc(Cl)cc1 (stereo unspecified) | inactive: 1.73%
31 | O=[As](O)(c1cccc(O)c1)c1cccc(O)c1 | inactive: 3.09%
32 | Cc1cccc(OCC(=O)OC2CN3CCC2CC3)c1 (stereo unspecified) | inactive: 0.352%
33 | NC(=O)Nc1ccc([As](=O)(O)O)cc1 | inactive: -0.01%
34 | O=[N+]([O-])c1ccc2c(c1)nnn2O | inactive: -3%
35 | CN(C(=O)Cc1ccccc1)[C@@H]1CC[C@]2(CCCO2)C[C@H]1N1CCCC1 | inactive: -3.84%
36 | CCOP1(=S)c2c(C)nn(CCC#N)c2N=C(c2ccc(F)cc2)N1C (stereo unspecified) | inactive: -6.68%
37 | N#CCCN(C(=O)COC(=O)C(O)(c1ccccc1)c1ccccc1)c1ccc(F)cc1 | inactive: -1.49%
38 | CS(=O)(=O)c1cc([N+](=O)[O-])c2no[n+]([O-])c2c1 | inactive: -5.04%
39 | O=P(Nc1nccs1)(c1ccccc1)c1nc2ccccc2s1 (stereo unspecified) | inactive: 1.47%
40 | O=P(Nc1nccs1)(Oc1ccccc1)Oc1ccccc1 | inactive: 3.67%
41 | CCOP1(=S)c2c(C)nn(CCC#N)c2N=C(c2ccccc2F)N1C (stereo unspecified) | inactive: 0.919%
42 | O=C(O)COc1ccc([As](=O)(O)O)cc1[N+](=O)[O-] | inactive: 23.8%
43 | Nc1ccccc1[As](=O)(O)c1ccccc1 | inactive: 4.37%
44 | CC(C)c1ccc(OP(=O)(Nc2ccccn2)Oc2ccccc2F)cc1 (stereo unspecified) | inactive: -0.679%
45 | ClCCSc1nnc(-c2cccnc2)o1 | inactive: 14.2%
46 | O=[N+]([O-])c1cc([N+](=O)[O-])c(-c2ccn[nH]2)s1 | inactive: -2.33%
47 | CCN(CC)C(=S)SC(NC=O)C(Cl)(Cl)Cl (stereo unspecified) | inactive: 7.38%
48 | CC(C)NC(=O)NP(=O)(Oc1ccccc1)Oc1ccccc1 | inactive: -2.11%
49 | COc1cc(C(=O)NCC2(N3CCOCC3)CCCCC2)ccc1OCC(C)C | inactive: 6.86%
50 | O=[As](O)(c1ccc(O)cc1)c1ccccc1O | inactive: -0.33%
51 | C[As](=O)(O)c1cccc(C(=O)O)c1 | inactive: 5.07%
52 | Cc1ccc2nc3c(c(C)c2c1)CC(C(Cl)Cl)S3 (stereo unspecified) | inactive: 10.9%

Row | SMILES | enhancement
53 | Cc1ccc(OP(=O)(Nc2ccc([N+](=O)[O-])cn2)Oc2ccc(C)cc2)cc1 | inactive: 2.65%
54 | COc1ccc(N/C(=N/P(=O)(N2CCOCC2)N2CCOCC2)N2CCOCC2)cc1 | inactive: 27.5%
55 | Cc1cc(=O)[nH]c(N[N+](=O)[O-])n1 | inactive: -2.75%
56 | O=C(OC1CN2CCC1CC2)C12CC3CC(CC(C3)C1)C2 (stereo unspecified) | inactive: -1.55%
57 | Cc1c2c(nc3ccccc13)SC(C(Cl)Cl)C2 (stereo unspecified) | inactive: -2.53%
58 | COc1cc(I)ccc1[As](=O)(O)O | inactive: -2.84%
59 | COc1ccc2nc(NP(=O)(c3ccccc3)c3ccccc3)sc2c1 | inactive: 0.655%
60 | CCOC(=O)c1ccc(NC(=O)C(C)(CCl)SC)cc1 (stereo unspecified) | inactive: 3.18%
61 | O=C(OC1CN2CCC1CC2)c1cccc([N+](=O)[O-])c1 (stereo unspecified) | inactive: 3.87%
62 | CCOP(=O)(Nc1cccc2cccnc12)OCC | inactive: 4.07%
63 | CCC(C)N(CC(C)C)C(=S)SC(NC(C)=O)C(Cl)(Cl)Cl (stereo unspecified) | inactive: 2.89%
64 | COP1(=S)c2c(C)nn(CCC#N)c2N=C(c2ccc(F)cc2)N1C (stereo unspecified) | inactive: 4.22%
65 | O=C(Nc1ccncc1[N+](=O)[O-])c1ccc([N+](=O)[O-])cc1[N+](=O)[O-] | inactive: -0.989%
66 | O=C(COc1ccccc1)OC1CN2CCC1CC2 (stereo unspecified) | inactive: -2.75%
67 | CCOC(=O)Nc1cccc([As](=O)(O)O)c1 | inactive: 6.4%
68 | O=[N+]([O-])c1ccc(Nc2ccc(Oc3ccc([N+](=O)[O-])cc3[N+](=O)[O-])cc2)c([N+](=O)[O-])c1 | inactive: 4.63%
69 | Cc1cc(SC(NC=O)C(Cl)(Cl)Cl)ncn1 (stereo unspecified) | inactive: -2.49%
70 | O=P(Nc1ccccn1)(c1cccc2ccccc12)c1cccc2ccccc12 | inactive: -10.1%
71 | CCOC(=O)Nc1ccc([As](=O)(O)O)c(O)c1 | inactive: -5.16%
72 | Cc1cc(SC(NC(=O)c2ccccc2)C(Cl)(Cl)Cl)nc(C(C)C)n1 (stereo unspecified) | inactive: 6.68%
73 | CCCCOc1ccc(C(=O)NCC2(N3CCCCC3)CCCCC2)cc1OC | inactive: -17.8%
74 | CC(C)(C)C(=O)NC(Sc1ccncn1)C(Cl)(Cl)Cl (stereo unspecified) | inactive: 8.4%
75 | O=[N+]([O-])c1ncn(CCn2ncnc2[N+](=O)[O-])n1 | inactive: -0.0074%
76 | O=[N+]([O-])c1cccc(NC2=NCC(CBr)S2)c1 (stereo unspecified) | inactive: 0.885%
77 | O=C(O)CNc1ccc([As](=O)(O)O)cc1 | inactive: 20.5%
78 | O=C(Nc1cc([As](=O)(O)O)ccc1O)c1ccccc1 | inactive: 9.6%

Row | SMILES | enhancement
79 | C[N+]1=C2C=CC=CC=C2SC12C([N+](=O)[O-])=CC([N+](=O)[O-])=C[C-]2[N+](=O)[O-] (stereo unspecified) | inactive: 4.37%
80 | Nc1ccc([As](=O)(O)c2ccc(N)cc2)cc1 | inactive: 8.55%
81 | CCN(/C(=N/P(=O)(N1CCOCC1)N1CCOCC1)N1CCOCC1)c1ccc(OC)cc1 | inactive: 1.99%
82 | CN(C)C(=O)OCCc1n(C)cc[n+]1C | active: 31.2%
83 | CC(C)=N/N=C(\N)N[N+](=O)[O-] | inactive: 7.2%
84 | CC1CCN(C(=O)Oc2c(Cl)cc(Cl)c3cccnc23)CC1 | inactive: -4.67%
85 | COc1ccc(C2=NCC(CBr)S2)cc1 (stereo unspecified) | inactive: -2.29%
86 | CC(=O)N1C2C3N(C(C)=O)C1C1N(C(C)=O)C(C(N1C(C)=O)N3C(C)=O)N2C(C)=O | inactive: 14.2%
87 | O=[N+]([O-])c1cccc2n[nH]nc12 | inactive: 0.371%
88 | O=[N+]([O-])c1cc([N+](=O)[O-])c(CCNc2ccccc2)c([N+](=O)[O-])c1 | inactive: -6%
89 | CCc1nc2c(n1)c1c(non1O)c1c2no[n+]1[O-] | inactive: -0.588%
90 | Cc1ccc(NP(=O)(Oc2ccccc2)Oc2ccccc2)nc1 | inactive: 7.97%
91 | Nc1cc(N)c2nonc2c1[N+](=O)[O-] | inactive: -0.339%
92 | Cc1c2non([O-])c-2c(C)[n+](=O)[n+]1[O-] | inactive: 6.2%
93 | O=C(NC(Sc1ccncn1)C(Cl)(Cl)Cl)c1ccccc1 (stereo unspecified) | inactive: 0.0187%
94 | Oc1ccccc1CNc1ccccn1 | inactive: -3.29%
95 | NC(=O)c1cc([N+](=O)[O-])cc([N+](=O)[O-])c1N | inactive: 1.09%
96 | Cc1ccc(N/C(=N/P(=O)(N2CCOCC2)N2CCOCC2)N2CCOCC2)cc1 | inactive: 1.63%
97 | CN(C(=O)Cc1ccc(Cl)c(Cl)c1)[C@H]1CCCC[C@H]1N1CCCC1 | inactive: -6.43%
98 | Cc1ccc(OP(=O)(Nc2nccs2)Oc2ccc(C)cc2)cc1 | inactive: -1.72%
99 | COc1ccccc1OP(=O)(Nc1ccc(C)cn1)Oc1ccccc1OC | inactive: 0.189%
100 | Clc1ccc(Cl)c(NC2=NCC(CBr)S2)c1 (stereo unspecified) | inactive: 1.76%
101 | CN1CCCC(OC(=O)C(c2ccccc2)c2ccccc2)C1 (stereo unspecified) | inactive: 1.39%

From PubChem BioAssay AID493056 (National Center for Advancing Translational Sciences (NCATS), 2011)
